Source: patent US20040022733A1, “Conjugated lysine copolymers” (priority 2002, published 2004)

System: rat mammary adenocarcinoma cells (ATCC 13762, Mat B cells)
Experiment: MR imaging on a rat tumor model (tumor enhancement)
Type: in vivo
Settings: Fisher 344 female rats, tail vein, dose 0.025 mmole Gd/kg, T1 weighted images at 2T
Protocol: Imaging was done on a rat tumor model. Specifically, rat mammary adenocarcinoma cells (ATCC 13762, Mat B cells) were implanted in Fisher 344 female rats ([…] in 0.5 ml phosphate buffered saline). After 7-9 days, tumors were about 10 mm in diameter and the imaging was done at that point. Imaging was performed using a GE CSI scanner at 2T with a 33 cm bore. A birdcage quadrature coil was used for transmission and receiving. T1 weighted images were obtained (TR 250 ms, TE 18 MS, NEX 16). Rats were imaged prior to injection of contrast agent. […] The rats were then imaged immediately after injection and then at 24 hours. Imaging efficacy was 67% tumor enhancement compared to 15% for globular (albumin (Gd)DTPA) or coiled (25-35% free lysine content) agents at the same dose.

albumin (Gd)DTPA: globular contrast agent, albumin carrying Gd-DTPA
tumor enhancement (imaging efficacy): 15%
